Measured values published in PubChem BioAssay AID998 (National Center for Advancing Translational Sciences (NCATS), 2007).
The list shows a part of the results, in another mix than the full data. Activity calls are given as the source filed them. The call rests on the fitted dose curve; in most records, active means well fitted curve in the direction sought with a large enough effect; inactive means no such curve, though single readings can be large or run the other way.

Sequences of proteins named here, by UniProt entry; tags and fusion partners are left off. A change or cut given only in a name is not applied to a line headed by its entry.
UniProt P06280: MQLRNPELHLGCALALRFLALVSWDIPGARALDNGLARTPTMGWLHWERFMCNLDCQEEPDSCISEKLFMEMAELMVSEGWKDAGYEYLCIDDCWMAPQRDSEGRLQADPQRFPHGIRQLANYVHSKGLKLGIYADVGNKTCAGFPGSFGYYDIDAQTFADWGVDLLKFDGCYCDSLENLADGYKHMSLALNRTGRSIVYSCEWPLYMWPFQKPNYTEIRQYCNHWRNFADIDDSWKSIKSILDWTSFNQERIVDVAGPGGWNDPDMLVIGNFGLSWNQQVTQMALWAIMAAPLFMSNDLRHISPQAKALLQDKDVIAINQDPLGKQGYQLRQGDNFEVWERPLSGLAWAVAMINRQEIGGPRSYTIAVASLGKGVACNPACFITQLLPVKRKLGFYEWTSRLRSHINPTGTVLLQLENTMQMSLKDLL

Target: Alpha-galactosidase A (Homo sapiens) (UniProt P06280)
Assay: Counterscreen for Glucocerebrosidase Inhibitors: qHTS Assay for Coffee Bean alpha-Galactosidase at pH 5.9;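 further: plate controls were uninhibited enzyme for no effect and no-enzyme basal signal for full effect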
Details: coffee bean alpha-galactosidase enzyme assay; at 76.9 µM (top of the series)
How it was run: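 Green coffee bean enzyme (2 nM final) was incubated with compounds (0.7 nM–77 uM) and 4-methylumbelliferyl alpha-D-galactopyranoside (80 uM) in citrate buffer pH 5.9, 20 min at room temperature. High-pH stop; fluorescence 365/440 nm; AC50 from Hill fits.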

Compound	activity, negative = inhibition
CN(C(=O)Cc1ccccc1)[C@@H]1CC[C@@]2(CCCO2)C[C@H]1N1CCCC1	inactive: -1.73%
CN(C(=O)Cc1ccc(Cl)c(Cl)c1)[C@@H]1CC[C@@]2(CCCO2)C[C@H]1N1CCCC1	inactive: -1.08%
CN(CCCl)Cc1cc(Cl)c(NC2=NCCN2)c(Cl)c1	inactive: -1.62%
CN(C(=O)Cc1ccc(Cl)c(Cl)c1)[C@@H]1CCCC[C@H]1N1CCCC1	inactive: -2.64% [middle of 4 runs]
